Values of other authors, collected in PMC6278313.

System: human COX-2
Conditions: human whole blood; COX-2 over COX-1; cited from earlier work

For `CS(=O)(=O)c1ccc(-c2nc(Cl)cc(NCc3cccs3)n2)cc1` [Compound 25, 6-Chloro-2-(4-(methylsulfonyl)phenyl)-N-(thiophen-2-ylmethyl)pyrimidin-4-amine], the “Selectivity vs. COX-1” value is listed as >81,300.
